Here are results for 1 compound from publication PMC3659105, “Profiling Epidermal Growth Factor Receptor and Heregulin Receptor 3 Heteromerization Using Receptor Tyrosine Kinase Heteromer Investigation Technology” (PLoS ONE, 2013).

Chains of the proteins cited; added tags and fusions are not shown. Residues count along the entry.
UniProt P21860, 20-1342: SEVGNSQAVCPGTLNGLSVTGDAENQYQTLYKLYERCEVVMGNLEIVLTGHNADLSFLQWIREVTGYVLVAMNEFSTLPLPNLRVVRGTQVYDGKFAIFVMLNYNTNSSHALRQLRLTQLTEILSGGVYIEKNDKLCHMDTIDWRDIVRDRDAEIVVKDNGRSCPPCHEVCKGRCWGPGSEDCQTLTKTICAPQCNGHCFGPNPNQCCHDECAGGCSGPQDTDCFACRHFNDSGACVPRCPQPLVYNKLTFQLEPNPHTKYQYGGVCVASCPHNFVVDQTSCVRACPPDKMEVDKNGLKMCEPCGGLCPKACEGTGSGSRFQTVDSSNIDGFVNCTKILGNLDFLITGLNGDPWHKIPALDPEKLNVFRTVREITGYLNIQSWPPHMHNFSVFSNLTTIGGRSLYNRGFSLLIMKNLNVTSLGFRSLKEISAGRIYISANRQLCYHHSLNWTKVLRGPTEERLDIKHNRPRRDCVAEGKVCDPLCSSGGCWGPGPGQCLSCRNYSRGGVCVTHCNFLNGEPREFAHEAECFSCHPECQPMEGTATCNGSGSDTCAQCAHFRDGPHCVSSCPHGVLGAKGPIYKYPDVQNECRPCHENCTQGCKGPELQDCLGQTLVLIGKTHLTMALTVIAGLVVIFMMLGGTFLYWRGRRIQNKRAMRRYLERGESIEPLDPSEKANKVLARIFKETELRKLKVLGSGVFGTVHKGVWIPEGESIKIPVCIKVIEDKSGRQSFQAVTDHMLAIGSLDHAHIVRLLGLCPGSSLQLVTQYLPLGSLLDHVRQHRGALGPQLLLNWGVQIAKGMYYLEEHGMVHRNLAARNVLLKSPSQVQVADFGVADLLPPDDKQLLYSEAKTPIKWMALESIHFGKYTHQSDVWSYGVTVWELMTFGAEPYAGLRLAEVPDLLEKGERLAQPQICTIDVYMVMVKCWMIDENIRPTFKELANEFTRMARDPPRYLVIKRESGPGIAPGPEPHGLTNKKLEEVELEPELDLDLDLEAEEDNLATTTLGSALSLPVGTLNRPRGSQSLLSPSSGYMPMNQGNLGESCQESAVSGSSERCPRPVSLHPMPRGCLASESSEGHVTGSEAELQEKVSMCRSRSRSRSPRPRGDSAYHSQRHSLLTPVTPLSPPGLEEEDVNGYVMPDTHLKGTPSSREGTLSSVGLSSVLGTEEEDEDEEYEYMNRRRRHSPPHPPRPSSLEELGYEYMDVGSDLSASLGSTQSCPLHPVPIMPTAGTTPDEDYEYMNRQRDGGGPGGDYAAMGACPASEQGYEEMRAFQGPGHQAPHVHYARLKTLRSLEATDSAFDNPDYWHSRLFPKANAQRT

What all share (assay type): cell-based
Test [1] has as its target T1, EGFR-HER3 heteromer (Homo sapiens, UniProt P00533+P21860).
T1 construct: used to replace the C terminus of the full-length constructs (with or without Rluc8); host or cells: HEK293FT
The test is described as follows: RTK-HIT BRET between HER3/Rluc8 and Grb2/Venus with untagged EGFR co-expressed. How it is done: (§1) HEK293FT cells (Life Technologies) were maintained at 37°C in 5% CO2 and complete media (Dulbecco's modified Eagle's medium (DMEM) containing 0.3 mg/ml glutamine, 100 IU/ml penicillin and 100 µg/ml streptomycin (GIBCO BRL, Carlsbad, CA, USA)) supplemented with 10% foetal calf serum (FCS) and 400 µg/ml Geneticin (Gibco). Transient transfections were carried out 24 h after seeding about 550,000 cells/well of a 6-well plate. Genejuice (Merck, Kilsyth, Australia) transfection reagent was used according to the manufacturer's instructions. Cells were harvested with 0.05% Trypsin-EDTA (Gibco).
(§2) Following initial titration of cDNA amounts (data not shown), two ratios were selected for the heteromer combinations shown in Figure 2. […] 24 h post-transfection, cells were harvested into 96-well plates (Nunc) and 48 h post-transfection, cells were incubated at 37°C, 5% CO2 for 2 h with 30 µM EnduRen (Promega) to ensure substrate equilibrium was reached. BRET measurements were taken at 37°C using the VICTOR Light plate reader with Wallac 1420 software (PerkinElmer, Glen Waverley, Victoria, Australia). Filtered light emissions were sequentially measured at 400–475 and 520–540 nm. The BRET signal was calculated by subtracting the ratio of 520–540 nm emission over 400–475 nm emission for a vehicle-treated cell sample from the same ratio for a second aliquot of the same cells treated with agonist, as described previously, [35].

The target of test [2] is T1, EGFR-HER3 heteromer. The test is described as follows: RTK-HIT BRET between EGFR/Rluc8 and Grb2/Venus with untagged HER3 co-expressed. How it is done: as §1, §2
Another test concerns the target T2, EGFR (Homo sapiens, UniProt P00533).
T2 construct: host or cells: HEK293FT
The test is described as follows: Ligand-induced BRET between EGFR/Rluc8 and Grb2/Venus (+ pcDNA3), Grb2 recruitment. How it is done:
as §1, §2

The mark [3] stands for this setting: 1 µM AG-1478, 20 nM agonist, kinetic.

Regarding `COc1cc2ncnc(Nc3cccc(Cl)c3)c2cc1OC.Cl` [AG-1478, AG-1478 hydrochloride], the “effect on constitutive BRET signal” value at EGFR-HER3 heteromer [1] (setting [3]) is listed as “strongly decreased”. The “inhibition of EGF- and HRG-induced BRET” value is “completely blocked” on EGFR-HER3 heteromer [1] (setting [3]) and “abolished” at EGFR-HER3 heteromer [2] (setting [3]). The “pIC50, EGF stimulation” value is 7.26±0.27 (n = 5) on EGFR-HER3 heteromer [1] (HER3/Rluc8 + Grb2/Venus + EGFR, 20 nM EGF); 6.35±0.11 (n = 4) at EGFR-HER3 heteromer [2] (EGFR/Rluc8 + Grb2/Venus + HER3, 20 nM EGF); 6.68±0.17 (n = 3) at EGFR (EGFR/Rluc8 + Grb2/Venus + pcDNA3, 20 nM EGF, about 60 minutes after agonist). Also, the “pIC50, HRG stimulation” value on EGFR-HER3 heteromer [1] (HER3/Rluc8 + Grb2/Venus + EGFR, 20 nM HRG) is given as 7.13±0.24 (n = 5); at EGFR-HER3 heteromer [2] (EGFR/Rluc8 + Grb2/Venus + HER3, 20 nM HRG), 6.76±0.11 (n = 5); on EGFR (EGFR/Rluc8 + Grb2/Venus + pcDNA3, 20 nM HRG (constitutive BRET), about 60 minutes after agonist), 6.31±0.08 (n = 3). Besides, the “inhibition of EGF-induced BRET” value is reported as “effectively block” at EGFR (1 µM AG-1478, 20 nM EGF, kinetic) and “completely inhibited” at EGFR (increasing concentrations of AG-1478, 20 nM EGF). For the same compound, on EGFR (10 µM AG-1478, 20 nM EGF), the “BRET signal relative to baseline” value is recorded as “below baseline”. Also, the “effect on constitutive BRET” value on EGFR (increasing concentrations of AG-1478, cells pretreated with HRG) is reported as “dramatically reduced the BRET signal below the basal level”.
